The values that follow are results of earlier work, collected in US10912841B2, “Antibody-drug-conjugate and its use for the treatment of cancer” (PIERRE FABRE MEDICAMENT, priority 2014, dated 2021).

In data set [1] the test system is Calu-3 xenograft (HER2 amplification). The settings on record: 15 mg/kg every 6 days (Cretella et al. 2014); cited from earlier work.
Data set [2] concerns JIMT-1 xenograft (HER2, resistant to Trastuzumab). The note with it: 15 mg/kg every 6 days (Barok et al. 2011); cited from earlier work.

Turning to TDM-1, in data set [1], the “Calu-3 tumor growth, published data” value is “did not induced complete regression”. Further, the “potency in JIMT-1 model, published data” value in data set [2] is given as “less potent”.
